The values that follow come from ChEMBL document CHEMBL1158584, “Mono-, di-, and triaryl substituted tetrahydropyrans as cyclooxygenase-2 and tumor growth inhibitors. Synthesis and biological evaluation” (J Med Chem, 2010).

The structures appear in SMILES notation.

In assay [1] the test system is NCI-H322M. To be noted: Homo sapiens, 48 h.
The subject of assay [2] is NCI-H322M. In words: cells. As to conditions: Homo sapiens, 48 h; for CC50: read-out: LC50.

Take `N#CSC[C@@H]1C[C@](O)(c2ccccc2)[C@@H](c2ccccc2)[C@H](c2ccc(F)cc2)O1` (relative stereo): the concentration for total growth inhibition (TGI) (usually the concentration at which net growth stops) with NCI-H322M [1] came to 26.9 µM. Moreover, in the assay on NCI-H322M [2], the GI50 (as a rule, the concentration that inhibits growth by half) turned out to be 4.78 µM and the CC50 was above 100 µM.
Regarding `N#CSC[C@@H]1C[C@@](O)(c2ccccc2)C[C@H](c2ccc(Cl)cc2)O1` (relative stereo), the CC50 in the assay on NCI-H322M [2] was found to be 52.4 µM.
Turning to `N#CSC[C@@H]1C[C@@](O)(c2ccccc2)C[C@H](c2ccc(F)cc2)O1` (relative stereo), the TGI in the assay on NCI-H322M [1] was 13.8 µM. Besides, in the assay on NCI-H322M [2], it took 3.31 µM to inhibit growth by half (GI50) and the CC50 is 44.6 µM.
The corresponding values for `N#CSC[C@@H]1C[C@](O)(c2ccccc2)[C@@H](c2ccccc2)[C@H](c2ccc(Cl)cc2)O1` (relative stereo) are 7.76 µM, 2.23 µM and 58.8 µM.
The like results for `CCSC[C@@H]1C[C@](O)(c2ccccc2)[C@@H](c2ccccc2)[C@H](c2ccc(Cl)cc2)O1` (relative stereo) were, in that order, 5.1 µM, 1.94 µM and above 100 µM.
The like results for `CCSC[C@@H]1C[C@](O)(c2ccccc2)[C@@H](c2ccccc2)[C@H](c2ccc(F)cc2)O1` (relative stereo) were, in that order, 6.45 µM, 2.29 µM and above 100 µM.
`CCSC[C@@H]1C[C@@](O)(c2ccccc2)C[C@H](c2ccc(F)cc2)O1` (relative stereo): in the assay on NCI-H322M [1], total growth inhibition (TGI) required 7.76 µM. Moreover, in the assay with NCI-H322M [2], the GI50 was 2.18 µM and the CC50 was 29.5 µM.
